{"source": "patent US7691382B2", "about": "“Antiviral polypeptides comprising tandem repeats of APOE 141-149 and variants thereof” (priority 2003, dated 2010)", "tested_on": "HSV1", "format": "cell-based, Human herpes simplex virus type 1", "description": "African Green Monkey Kidney (Vero) cells were maintained in Eagle's minimum essential medium with Earle's salt (EMEM) and supplemented with 10% foetal calf serum (heat-inactivated), 4 mM L-glutamine, and 1% (v/v) nonessential amino acids, plus penicillin and streptomycin (100 IU/mg and […], respectively) (maintenance medium referred to as 10% EMEM). The cells were incubated at 37° C. in a humidified atmosphere of air with 5% CO2.\nOn harvesting, monolayers were washed in phosphate-buffered saline (PBS), and dislodged by incubating with trypsin in PBS for 30 min, before inactivating trypsin by addition of an equal volume of 10% EMEM and centrifuging at 500 g (5 min, 4° C.). Cell pellets were resuspended in 10% EMEM, prior to cell counting and seeding of 24-well plates. For antiviral assays, medium containing only 0.5% FCS was used (referred to as 0.5% EMEM).\nThree separate passages of HSV1 virus were prepared by infecting Vero cells, and preparing semi-pure suspensions of virus from tissue culture supernatant and cell lysates, before freezing aliquots of virus at −85° C. Viral infectivity was assessed by carrying out plaque assays on serial dilutions of thawed aliquots (expressed in pfu/ml).\nPeptides were obtained in lyophilised form from a commercial supplier (AltaBioscience, University of Birmingham or Advanced Biomedical), and were produced at 5 micromole scale. N-terminals were protected by addition of an acetyl group, and the C-terminals were protected by addition of an amide group.\nSmall quantities of peptide were weighed in sterile Eppendorf tubes, before addition of sufficient 0.5% EMEM to produce a 1.5 mM stock solution, which was frozen at −20° C. in aliquots.\nVero cells were seeded at 125,000 cells per well in 10% EMEM, and were incubated overnight resulting in confluent monolayers. […] Plaques were counted using an Olympus IX70 Inverting Microscope, and antiviral effect expressed as a percentage of the control value for each peptide concentration. The IC50 was calculated from plots of inhibitory effect against peptide concentration. […]", "note": "Read-outs that look alike come from different tables or passages of the source."}
{"compound": "CC(=O)N[C@@H](CCC(N)=O)C(=O)N[C@@H](CO)C(=O)N[C@H](C(=O)N[C@@H](CCC(=O)O)C(=O)N[C@@H](CCC(=O)O)C(=O)N[C@@H](CC(C)C)C(=O)N[C@@H](CCCNC(=N)N)C(=O)N[C@H](C(=O)N[C@@H](CCCNC(=N)N)C(=O)N[C@@H](CC(C)C)C(=O)N[C@@H](C)C(=O)N[C@@H](CO)C(=O)N[C@@H](Cc1c[nH]cn1)C(=O)N[C@@H](CC(C)C)C(=O)N[C@@H](CCCNC(=N)N)C(=O)N[C@@H](CCCCN)C(=O)N[C@@H](CC(C)C)C(=O)N[C@@H](CCCNC(=N)N)C(=O)N[C@@H](CCCCN)C(=O)N[C@@H](CCCNC(=N)N)C(=O)N[C@@H](CC(C)C)C(=O)N[C@@H](CC(C)C)C(N)=O)C(C)C)[C@@H](C)O", "note": "[GIN 11]", "values": [{"measurement": "efficacy for reducing HSV1 infectivity (in words)", "setting": "Examples 2 and 3", "result": "no, or poor, efficacy"}, {"measurement": "IC50", "setting": "HSV1, Vero cells, Table 4 (Example 2), read-out: Apparent IC50", "result": 36.5, "unit": "µM"}, {"measurement": "IC50", "setting": "HSV-1, Vero cells, Table 6 (Example 3), read-out: IC50", "result": 36.5, "unit": "µM"}]}
